Literature values as cited in US11325944B2 (priority 2017, dated 2022).

Sequences of proteins named here, by UniProt entry; tags and fusion partners are left off. A change or cut given only in a name is not applied to a line headed by its entry.
UniProt P41145: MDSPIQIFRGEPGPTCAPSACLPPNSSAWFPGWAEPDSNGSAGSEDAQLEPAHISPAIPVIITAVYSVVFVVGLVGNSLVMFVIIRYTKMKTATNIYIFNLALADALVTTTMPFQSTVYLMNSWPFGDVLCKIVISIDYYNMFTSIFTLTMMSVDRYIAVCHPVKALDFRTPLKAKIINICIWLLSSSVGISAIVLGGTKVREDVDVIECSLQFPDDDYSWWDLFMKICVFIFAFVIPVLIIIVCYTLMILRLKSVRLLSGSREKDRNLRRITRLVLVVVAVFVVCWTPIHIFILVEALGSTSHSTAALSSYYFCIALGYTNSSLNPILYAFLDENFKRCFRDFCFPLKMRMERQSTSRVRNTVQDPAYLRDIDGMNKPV

Target: KOR (Homo sapiens, UniProt P41145)

cyclo [CJ-15,208, cyclo [Phe-D-Pro-Phe-Trp]]
selectivity for KOR over MOR and DOR: selective activity against the kappa opioid receptor (KOR) over mu opioid receptors (MOR) and delta opioid receptors (DOR) | KOR antagonism in vitro (in vitro): antagonize KOR in vitro
